## Antibody variant affinities, Ab-14 light chain, assay B

Source: Li et al. 2023 (doi:10.1038/s41467-023-39022-2), MIT Lincoln Laboratory and A-Alpha Bio; data file from the FLAb repository.

Target: peptide PDVDLGDISGINAS, taken from heptad repeat 2 (HR2) of SARS-CoV-2 spike.

Parent scFv Ab-14: VH joined to VL by a (GGGGS)3 linker. Changes lie in the light chain CDRs alone.
VH: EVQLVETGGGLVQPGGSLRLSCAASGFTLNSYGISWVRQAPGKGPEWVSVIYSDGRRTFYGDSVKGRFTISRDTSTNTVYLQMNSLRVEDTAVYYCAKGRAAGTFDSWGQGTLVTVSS
VL: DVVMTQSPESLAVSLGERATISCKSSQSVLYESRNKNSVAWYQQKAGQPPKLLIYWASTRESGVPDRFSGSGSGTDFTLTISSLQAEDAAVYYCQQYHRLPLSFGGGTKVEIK

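Designed CDR sequences, proposed from the first random library and measured here. Their group label is 14L_En_Gibbs (En: ensemble of fine-tuned language models; Gibbs: Gibbs sampling). The assay is AlphaSeq: two haploid yeast populations carry antibody and antigen on their surface. After mating in shaken culture at 30 °C for 16 h, diploids were selected and their barcode pairs sequenced. Read counts were normalised to the haploid input and turned into Kd by a linear fit to BCL2-family pairs of known affinity, for each replicate. Each pool was mated in six replicate cultures.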

Variants are written as CDR1, CDR2 and CDR3 of the light chain (limits as in the source). Parent: KSSQSVLYESRNKNSVA, WASTRES, QQYHRLPLS.
The read-out is the apparent dissociation constant on a log10 scale (nM): the lower, the stronger.
Replicates are averaged; those with no signal do not enter the mean.
"n.d." marks a missing value. The strain was present, yet no cells mated with the target were sequenced in that replicate, which points to weak or no binding.

| CDR-L1 | CDR-L2 | CDR-L3 | log10 Kd (nM) by replicate | mean, log10 nM | control signals |
|---|---|---|---|---|---|
| KLQWYNTLATYSAQNIA | DGAQRLN | QQYMRLPLM | 0.47 0.23 0.13 0.20 0.18 0.29 | 0.25 | 1/18 (3.53) |
| HINDMLFGSTKIAHSIA | NTGVTSR | QQYSRLPLI | 0.56 1.10 1.37 0.97 1.46 1.18 | 1.11 | 1/18 (4.33) |
| QMYPFEVAIGEGTNNVA | HVSVRAL | QQYERLPLV | 1.38 1.13 1.10 1.06 1.04 1.22 | 1.15 | 2/18 (3.28) |
| KFFGGIPEQERDDYSIA | KGTLREV | QQYQRLPLS | 0.74 0.68 0.48 0.18 0.71 0.73 | 0.59 | 5/18 (3.14) |
| SMMFDTSDNYHERQNVA | DGAAIMN | QQYSILPLS | 0.92 1.21 1.60 0.73 0.94 1.31 | 1.12 | 0/18 |
| KITDHFLGLGNGRQNIA | HAGVAVE | QQYHQLPLA | 1.03 1.16 1.15 0.88 0.84 0.89 | 0.99 | 1/18 (4.57) |
| KLTAAQNYYGQNYSNIA | EEINSLQ | QQYHHLPLS | n.d. 2.94 2.69 2.49 n.d. 3.13 | 2.81 | 2/18 (1.90) |
| MISMMHASQYNEESSIA | DAEALNS | QQYHELPLS | n.d. n.d. n.d. 1.53 n.d. n.d. | 1.53 | 1/18 (1.64) |
| SVTNETDGNGLKWNSVA | DAAELMT | QDYFRLPIT | 1.43 1.15 0.99 1.19 1.02 1.45 | 1.20 | 0/18 |
| KITQIFFPYGNSWHSVA | NANTLAA | QQYYMLPLM | 0.41 0.29 0.37 0.46 0.29 0.28 | 0.35 | 2/18 (2.51) |
| EISILGEEVTQHYSNVA | EQHVTDM | QQYFRLPLS | 1.62 n.d. n.d. n.d. n.d. n.d. | 1.62 | 0/18 |
| KINGVLINFGEDMNAIA | QENISNL | QQYFHLPLS | 1.81 1.45 1.13 n.d. n.d. 1.95 | 1.58 | 0/18 |
| RLWQQMYGFNIHANAIA | EGKERYW | QQYFRLPLS | 0.71 1.00 1.11 0.24 1.57 0.26 | 0.82 | 1/18 (0.85) |
| MLDQMDGQMGVNTNNIA | GVVESRI | QQYHRLPLS | 1.24 1.54 2.29 1.84 2.04 1.44 | 1.73 | 1/18 (2.29) |
| MIEQGENEDEEHYNSIA | EGHERPR | QQYYKLPLV | 0.64 0.82 0.20 0.53 0.44 0.49 | 0.52 | 0/18 |
| FIAGNSDNLYQDESSVA | ETNQVRE | QQYALLPLS | n.d. 2.09 2.06 n.d. n.d. n.d. | 2.08 | 1/18 (2.67) |
| KLSMEPLVEWNRAQAIA | DAHMSYI | QQYFHLPLY | n.d. n.d. n.d. n.d. n.d. n.d. | n.d. | 0/18 |
| MVKMELEEFAQDKHSVA | EAVERES | QQYHRLPII | 2.15 1.40 1.90 1.78 2.49 2.74 | 2.08 | 1/18 (2.61) |
| KLTEQLYNGEREPSSIA | AGVIGSD | QQYHQLPLI | 1.12 1.45 0.95 2.98 1.62 1.62 | 1.62 | 0/18 |
| HIDQFTSYDNGEDRAIA | DVTIKDY | QQYARLPLL | 0.63 1.08 0.84 0.92 0.82 1.08 | 0.89 | 0/18 |
| RISAHVYDETNTQENVA | QEHIRAN | QSYSRLPLS | 2.59 2.96 2.33 2.75 1.87 2.38 | 2.48 | 0/18 |
| HFDQTEQEGIQDKNSVA | QGSVVAS | QHYSKLPLS | 0.85 0.90 0.88 0.72 0.80 0.77 | 0.82 | 1/18 (2.33) |
| WLNMEEQGSDRGKSSVA | DSDARMA | QQYQRLPLS | -0.03 -0.08 -0.29 -0.03 -0.18 -0.06 | -0.11 | 0/18 |
| NLGGEDANDNRGMMAVA | DVNTVGE | QHYNRLPLS | 1.31 1.16 2.12 2.68 1.97 1.30 | 1.76 | 0/18 |
| HMNTADVGVSDHYNSVA | EQRAAGI | QQYFRLPLS | 2.43 1.57 1.43 1.93 1.27 n.d. | 1.73 | 0/18 |
| MISMEEAPASQQASSIA | QGGTRAE | QQYNRLPLC | 1.09 0.76 0.69 0.44 0.66 0.59 | 0.70 | 0/18 |
| GFSDSITEQIADANSIA | DRDERDV | QQYSRLPLI | 1.40 1.62 1.44 1.81 2.23 1.21 | 1.62 | 1/18 (2.70) |
| KLGGEQQNSTYEMDNVA | DVNTTFE | QHYSRLPLT | n.d. n.d. n.d. n.d. n.d. n.d. | n.d. | 1/18 (1.76) |
| KLDLYNGEMDKKGDNIA | EASTAGM | QHYWRLPLS | n.d. 2.14 1.58 2.11 1.71 1.78 | 1.86 | 0/18 |
| HIQEVDNQVENQLGNVA | DANEYLA | QQYFQLPIS | 1.61 2.49 n.d. n.d. n.d. n.d. | 2.05 | 0/18 |
| TLGNQPTEMRDNKHAVA | DDYQRDR | QQYMRLPLS | 0.73 0.48 0.43 0.81 0.92 0.61 | 0.66 | 0/18 |
| SMSNLGMVPSVWENSIA | DTEIVEE | QQYSRLPLL | 0.93 0.56 0.54 0.72 0.70 0.93 | 0.73 | 1/18 (2.50) |
| SMAYTQHFGFQQEKAIA | EVATREQ | QQYFRLPLT | 1.11 0.68 0.61 0.46 0.43 0.98 | 0.71 | 2/18 (1.99) |
| MVNTNLVHQANRDNNIA | EAQMVAA | QDYDRLPLI | n.d. 1.93 n.d. n.d. 2.79 n.d. | 2.36 | 0/18 |
| KITQILFPYGNSWHSVA | NANTLAA | QQYYMLPLM | 0.70 0.85 0.71 0.77 0.85 0.82 | 0.78 | 0/18 |
| SLSPFMDNYNQKYDSVA | DTANIDI | QQYDRLPLS | n.d. n.d. n.d. n.d. n.d. n.d. | n.d. | 0/18 |
| KFTQWTFSQNRDDNSIA | HADEVVR | QQYDRFPLT | n.d. n.d. n.d. n.d. n.d. 0.13 | 0.13 | 0/18 |
| NIVGRVEDKQTENNNIA | DAHCRAG | QQYSRLPLS | 0.42 0.42 0.43 0.50 0.59 0.54 | 0.48 | 1/18 (3.31) |
| HLHTINYTEAIGTNSIA | DANLHVT | QQYFRLPIM | 0.77 1.32 0.94 0.63 1.02 1.17 | 0.98 | 0/18 |
| ALNQKGFQLSGMRDSIA | HSDTRLA | QQYYRLPLA | -0.21 -0.26 -0.27 -0.37 0.10 -0.08 | -0.18 | 0/18 |
| MLSQTVDYNYTAGNSVA | EVTERCN | QQYKQLPLS | 1.94 1.77 3.01 1.61 3.13 n.d. | 2.29 | 0/18 |
| NLNDGPMEQQIHMDAIA | QEAIRNA | QQYARLPLS | 1.92 0.60 0.86 0.55 0.73 0.94 | 0.93 | 0/18 |
| QLEFRDVQGGANWHAIA | EASQLGQ | QQYFHLPLG | 1.38 1.29 1.65 1.59 1.23 1.63 | 1.46 | 0/18 |
| KLVGVDDNDNNPSHAIA | DVSTLDN | QQYHRLPLD | 0.97 0.42 n.d. 1.77 0.13 1.98 | 1.06 | 0/18 |
| IINLSPMDHQIHMDAIA | QEAIRNQ | QQYARLPLS | 1.18 1.07 0.89 0.58 1.20 1.13 | 1.01 | 0/18 |
| NLEMFDGMLNMYASSIA | NAHCLVQ | QQYYRLPIS | 1.91 1.58 2.56 2.48 1.98 1.30 | 1.97 | 3/18 (2.88) |

A selection of 4 entries from above:

| CDR-L1 | CDR-L2 | CDR-L3 | log10 Kd (nM) by replicate | mean, log10 nM | control signals |
|---|---|---|---|---|---|
| KITQILFPYGNSWHSVA | NANTLAA | QQYYMLPLM | 0.70 0.85 0.71 0.77 0.85 0.82 | 0.78 | 0/18 |
| SMAYTQHFGFQQEKAIA | EVATREQ | QQYFRLPLT | 1.11 0.68 0.61 0.46 0.43 0.98 | 0.71 | 2/18 (1.99) |
| KINGVLINFGEDMNAIA | QENISNL | QQYFHLPLS | 1.81 1.45 1.13 n.d. n.d. 1.95 | 1.58 | 0/18 |
| HIQEVDNQVENQLGNVA | DANEYLA | QQYFQLPIS | 1.61 2.49 n.d. n.d. n.d. n.d. | 2.05 | 0/18 |

Three control strains display no target. For all light chain designs, 4% of the pairings with them gave a signal, with a median of 2.64 and one signal in twenty below 1.59, so weak values seen in few replicates may be background. Also given: how often the same scFv was detected with the empty control strains, with their mean in brackets.
In the paper, a design with two or fewer of six values counts as a poor binder.
Values of this round are not directly comparable with the first-round values of the same sequences.
Of ten entries with the parent sequence, four were seen in most replicates (averages 0.34 to 2.37), three in one and three in none, so single entries are noisy.